A word on the IC50: it is the concentration that gives 50% inhibition.

Structures are written as SMILES.

The experiment has as its system L02. As to the kind of experiment: Cytotoxicity against human L02 cells assessed as reduction in cell viability by MTT assay. The experiment is classed as cell-based. (In general: Tetrazolium dyes change colour on reduction, which living cells bring about.)

Regarding `C=CC(=O)Nc1cc(Nc2nccc(-c3cn(C)c4ccccc34)n2)c(OC)cc1N(C)CCN(C)C` [OSIMERTINIB], the IC50 was 1980 nM.

The record behind these values is ChEMBL document CHEMBL4706659, “Design, synthesis and biological evaluation of novel 2,4-diaryl pyrimidine derivatives as selective EGFR inhibitors” (Eur J Med Chem, 2021).
